Laboratory results: PMC8657792, “Interaction Profiles of Central Nervous System Active Drugs at Human Organic Cation Transporters 1–3 and Human Plasma Membrane Monoamine Transporter” (International Journal of Molecular Sciences, 2021)

Experiments:
[1] = target: T1, hOCT3 (Homo sapiens, UniProt O75751); conditions: Table S1; supplementary reference list; read-out: IC50 literature hOCT3; cited from earlier work
T1 construct: expressed in transfected cells
T1 sequence (O75751 1-556): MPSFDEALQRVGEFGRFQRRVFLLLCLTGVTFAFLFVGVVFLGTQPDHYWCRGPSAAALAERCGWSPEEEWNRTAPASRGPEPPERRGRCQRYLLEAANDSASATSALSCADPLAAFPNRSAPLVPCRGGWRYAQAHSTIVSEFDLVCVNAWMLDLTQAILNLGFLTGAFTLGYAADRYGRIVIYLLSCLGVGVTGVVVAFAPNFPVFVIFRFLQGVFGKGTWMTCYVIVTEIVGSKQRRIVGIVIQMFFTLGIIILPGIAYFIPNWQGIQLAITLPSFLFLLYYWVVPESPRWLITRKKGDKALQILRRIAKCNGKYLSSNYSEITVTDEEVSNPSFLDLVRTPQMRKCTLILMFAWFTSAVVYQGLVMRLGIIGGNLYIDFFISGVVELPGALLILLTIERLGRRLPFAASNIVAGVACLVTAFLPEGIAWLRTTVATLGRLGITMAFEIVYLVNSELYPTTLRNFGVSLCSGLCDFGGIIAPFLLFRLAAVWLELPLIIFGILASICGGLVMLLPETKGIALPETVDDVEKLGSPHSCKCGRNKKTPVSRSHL

[2] = target: T1, hOCT3; assay: [3H]MPP+ uptake inhibition assay, HEK293 cells stably expressing hOCT3; format: cell-based; conditions: 0.05 μM [3H]MPP+, 10 min pre-incubation, 10 min uptake, brackets in Table S1 = 95%-CI, n.s. = non-significant

| SMILES | IC50 [1] [µM] | IC50 hOCT3 (inhibitory potency, [3H]MPP+ uptake) [2] |
| --- | --- | --- |
| CN(C)CCCC1(c2ccc(F)cc2)OCc2cc(C#N)ccc21 (stereo not drawn) [Citalopram] | 188 | – |
| CN(C)CCC[C@]1(c2ccc(F)cc2)OCc2cc(C#N)ccc21 [R-Citalopram, R-citalopram] | – | n.s. |
| CN(C)CCC[C@@]1(c2ccc(F)cc2)OCc2cc(C#N)ccc21 [S-Citalopram, S-citalopram] | – | n.s. |
